From patent US20250381149A1, “CATIONIC AMPHIPHILIC COMPOUND-BASED NANOPARTICLE COMPOSITIONS” (Universiteit Gent, priority 2022, published 2025)

Chains of the proteins cited; added tags and fusions are not shown.
UniProt P28223, whole entry: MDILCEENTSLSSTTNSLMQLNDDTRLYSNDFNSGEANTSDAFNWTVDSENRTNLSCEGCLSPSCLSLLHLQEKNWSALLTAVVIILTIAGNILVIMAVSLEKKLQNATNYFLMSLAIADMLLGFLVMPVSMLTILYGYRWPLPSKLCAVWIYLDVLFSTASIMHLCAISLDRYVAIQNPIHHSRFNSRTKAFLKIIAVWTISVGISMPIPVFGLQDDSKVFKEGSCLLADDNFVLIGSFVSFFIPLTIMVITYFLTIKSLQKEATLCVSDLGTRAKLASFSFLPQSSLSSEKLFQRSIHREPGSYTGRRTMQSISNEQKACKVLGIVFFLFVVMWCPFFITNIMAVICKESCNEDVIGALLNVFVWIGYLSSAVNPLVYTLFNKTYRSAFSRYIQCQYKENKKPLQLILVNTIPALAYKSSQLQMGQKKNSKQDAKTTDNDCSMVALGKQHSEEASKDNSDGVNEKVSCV

Molecular target: T1, 5-HT2AR (serotonin 2A receptor) (Homo sapiens, UniProt P28223)
T1 construct: expressed in transfected cells
Format: cell-based

Question: For Nortriptyline hydrochloride, which “LSD-induced 5-HT2AR activation” value is on record?
Answer: reduced or even completely prevented
